Values quoted from earlier work as cited in patent US20190382462A1, “METHODS AND COMPOSITIONS FOR TREATING HPA HYPERACTIVITY” (priority 2017, published 2019).

Amino acid sequences for entries named in this document (tags omitted). Residues count along the entry.
UniProt P55899, 24-297 limits assumed, species assumed: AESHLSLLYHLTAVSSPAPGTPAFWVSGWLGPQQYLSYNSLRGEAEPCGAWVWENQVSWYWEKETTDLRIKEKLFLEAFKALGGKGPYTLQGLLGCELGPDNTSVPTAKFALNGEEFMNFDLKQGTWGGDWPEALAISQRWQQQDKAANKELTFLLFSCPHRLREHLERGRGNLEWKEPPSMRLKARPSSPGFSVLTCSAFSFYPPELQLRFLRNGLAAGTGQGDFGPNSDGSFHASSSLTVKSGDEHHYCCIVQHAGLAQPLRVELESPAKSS

Target: FcRn (Homo sapiens, UniProt P55899)

## K573P mutant of HSA: modified recombinant HSA with improved FcRn binding
  affinity for FcRn relative to wild type HSA: 12 fold
